Legend:
[1] = test system: Rat Hepatocytes; assay: Hepatic intracellular concentration (ICC) in rat hepatocytes, observed vs predicted; type: in vitro ADME; settings: 1 μM; for Predicted ICC (uM) HBSS: absence of protein (HBSS), adjusted with free fraction of Table 1; for Observed ICC (uM) BSA: one-step method with BSA
Text: The hepatic intracellular concentration (ICC) of a compound, which reflects the balance of the uptake, metabolism, and efflux out of the cell, can also be determined in the absence and presence of protein.

Amino acid sequences for entries named in this document (tags omitted).
UniProt P11712, whole entry: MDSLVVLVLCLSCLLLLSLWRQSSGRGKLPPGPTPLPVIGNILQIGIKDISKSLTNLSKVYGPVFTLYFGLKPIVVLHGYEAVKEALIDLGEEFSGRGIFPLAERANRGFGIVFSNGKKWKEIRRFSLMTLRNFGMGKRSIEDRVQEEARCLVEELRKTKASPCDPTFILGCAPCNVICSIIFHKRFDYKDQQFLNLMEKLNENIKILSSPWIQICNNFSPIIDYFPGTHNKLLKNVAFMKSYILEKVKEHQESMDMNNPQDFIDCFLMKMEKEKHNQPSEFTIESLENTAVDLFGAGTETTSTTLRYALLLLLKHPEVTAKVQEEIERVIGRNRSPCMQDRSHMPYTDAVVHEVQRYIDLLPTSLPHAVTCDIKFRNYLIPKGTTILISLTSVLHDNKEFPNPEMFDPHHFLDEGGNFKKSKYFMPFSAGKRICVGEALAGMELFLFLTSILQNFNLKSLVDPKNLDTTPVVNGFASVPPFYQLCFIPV

[2] = target: CYP2C9 (Homo sapiens, UniProt P11712); assay: cell-based; settings: Estimated IC50 (μM)
Protocol: Sandwich-Cultured Hepatocytes (SCH) were prepared using freshly isolated hepatocytes or cryopreserved hepatocytes. Freshly isolated hepatocytes were plated on 24-well cell culture plates, rinsed and fed with the appropriate species specific Qualyst Transporter Solutions (QTS, Durham, North Carolina, United States of America) propriety culture medium (QualGro™). Cells were maintained in the appropriate species specific medium until consumed in studies.
Cryopreserved hepatocytes were thawed following manufacturer's thawing instructions. Cryopreserved hepatocytes were subsequently suspended in QTS propriety hepatocyte seeding medium (QualGro™ Seeding Medium) at a density of 0.7-0.8 million viable cells/mL onto BioCoat® 24-well cell culture plates. Following plating, cells were allowed to attach for 2-4 hours, rinsed and fed with warm (37° C.) seeding medium. Eighteen to 24 hours later, cells were fed and overlaid with the appropriate species specific QTS propriety culture medium (QualGro™) supplemented with extracellular matrix (ECM), Matrigel® (0.25 mg/mL). Cells were maintained in QualGro™ Hepatocyte Culture Medium until consumed in studies.
Cells were cultured as described above through day 6 of culture. […]
In situ incubations were analyzed for the detection of P450 mediated metabolite formation of hydroxymidazolam from midazolam and hydroxyibuprofen from ibuprofen. […]

Structure (SMILES)	Predicted ICC (uM) HBSS [1]	Observed ICC (uM) BSA [1]	IC50 ([2]; 4% BSA)	IC50 ([2]; No BSA)
O=C(O)C[C@H](O)C[C@H](O)/C=C/c1c(C2CC2)nc2ccccc2c1-c1ccc(F)cc1 [Pitavastatin]	1.29 µM	4.15 µM	–	–
OC(Cn1cncn1)(Cn1cncn1)c1ccc(F)cc1F [Fluconazole]	–	–	27.1 µM	56.2 µM
CC[C@H](C)C(=O)O[C@H]1C[C@H](O)C=C2C=C[C@H](C)[C@H](CC[C@@H](O)C[C@@H](O)CC(=O)O)[C@H]21 [Pravastatin]	1.10 µM	2.36 µM	–	–

Reference: patent US12650422B2, “Utility of protein in the prediction of in vivo effects” (Qualyst Transporter Solutions, LLC, priority 2014, dated 2026)
